Values quoted from earlier work in US20070015719A1, “Nanoparticulate clarithromycin formulations” (Elan Pharma International Limited, priority 2005, published 2007).

Details: in vivo, po

- absolute bioavailability: 50%
Substance: 6-o-methyl erythromycin A [clarithromycin]
